## Ab-14 light chain CDR variants: yeast mating affinities

The target is the same throughout: PDVDLGDISGINAS, from the HR2 region of SARS-CoV-2 spike.

The variants keep the heavy chain, the linker and the frameworks of Ab-14 (scFv order VH, the linker GGGGSGGGGSGGGGS, VL).
VH: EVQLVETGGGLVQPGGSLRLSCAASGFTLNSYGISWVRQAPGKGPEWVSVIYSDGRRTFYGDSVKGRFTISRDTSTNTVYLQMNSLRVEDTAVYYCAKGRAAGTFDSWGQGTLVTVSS
VL: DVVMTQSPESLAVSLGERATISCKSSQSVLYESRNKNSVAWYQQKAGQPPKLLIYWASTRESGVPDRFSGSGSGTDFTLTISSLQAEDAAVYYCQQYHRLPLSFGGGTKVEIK

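The parent was found by panning a naive human phage display library on the peptide. These sequences belong to a second round, designed from the earlier measurements on random variants of the parent. Their group label is 14L_En_Gen (En: ensemble of fine-tuned language models; Gen: genetic algorithm). In AlphaSeq, yeast of one mating type display the scFv and yeast of the other type display the target. The frequency of each diploid, read from paired DNA barcodes, reflects how well the two displayed proteins bind. Read counts were normalised to the haploid input and turned into Kd by a linear fit to BCL2-family pairs of known affinity, for each replicate. There are six technical replicates.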

Each variant is given by its three light chain CDRs, as the data file delimits them; those of the parent are KSSQSVLYESRNKNSVA, WASTRES, QQYHRLPLS.
Values are log10 of the apparent Kd in nM; lower means stronger binding.
The mean shown is taken over the replicates in which the pair was detected.
An entry "n.d." has no value in the source: the pair was not observed among the diploids in that replicate. This suggests poor binding but is not conclusive.
Values of this round are not directly comparable with the first-round values of the same sequences.
Empty control strains, which show no peptide, gave a signal in 4% of pairings with all light chain designs; the median was 2.64 and 95% of these signals were weaker than 1.59. No background was subtracted. The control count says in how many pairings with the empty strains this scFv gave a signal, with their mean in brackets.
Of ten entries with the parent sequence, four were seen in most replicates (averages 0.34 to 2.37), three in one and three in none, so single entries are noisy.
The authors averaged sequences with at least three values out of six and counted those with two or fewer as poor binders.

| CDR-L1 | CDR-L2 | CDR-L3 | log10 Kd (nM) by replicate | log10 Kd (nM), mean | empty controls |
|---|---|---|---|---|---|
| HITYGMMVAGRHSSSIA | QAETRAK | QQYDRLPLI | 2.16 2.48 2.38 2.41 3.18 1.29 | 2.32 | 2 of 18 (1.80) |
| MVTQLAMTGMMSKRSVA | NAETRES | QQYHRLPLI | 1.01 0.28 0.74 0.67 0.84 1.17 | 0.79 | 0 of 18 |
| MIGQMMGWESNKIHSVA | QANLRVE | QQYDRLPLE | n.d. n.d. n.d. n.d. 0.93 n.d. | 0.93 | 0 of 18 |
| KIYQAMHTLSQHKDNVA | DVNERGS | QQYYRLPLS | 0.54 0.43 0.38 0.47 0.47 0.63 | 0.49 | 1 of 18 (2.14) |
| TLYGLSNSMSINKDSVA | EMTTRED | QQYDRLPLV | 2.68 3.21 3.37 n.d. n.d. 3.27 | 3.13 | 0 of 18 |
| MISQLMNMGTFAINSVA | QAEIRNN | QQYDRLPLA | n.d. 1.82 n.d. n.d. 2.07 n.d. | 1.94 | 0 of 18 |
| KISQMARVGSTHSNSIA | EEATRSD | QQYHRLPLA | 0.11 0.27 0.54 0.16 0.72 0.70 | 0.41 | 1 of 18 (1.86) |
| KIGATLNTLSHKQNNVA | DLVEREN | QQYFRLPLS | 0.15 0.08 -0.06 0.15 0.02 0.21 | 0.09 | 2 of 18 (3.16) |
| KISMLMENSHVNRNSVA | ELVTRMR | QQYNRLPLS | n.d. 2.13 1.47 2.26 n.d. n.d. | 1.95 | 1 of 18 (1.99) |
| MISQLMNLGQFAINSVA | QATIRNS | QQYDRLPLI | 2.49 2.33 2.02 n.d. 3.59 3.09 | 2.70 | 1 of 18 (4.26) |
| QISTITGHMSTIKNNVA | EMVTRAN | QQYNRLPLS | 0.73 0.59 0.08 0.42 0.15 0.35 | 0.39 | 0 of 18 |
| MMSQVTGQGTRHRNNVA | QTSTREP | QQYDRLPLV | 1.44 1.21 1.17 0.76 1.02 1.35 | 1.16 | 1 of 18 (2.41) |
| MVSQLMLWGMHVKNSIA | EAVTRIN | QQYDRLPLF | 1.03 1.98 1.68 1.22 2.32 1.59 | 1.64 | 1 of 18 (2.68) |
| KISQMTRVGMTHSNSIA | EEVVRAK | QQYHRLPLA | 1.39 2.09 n.d. 1.03 0.41 1.06 | 1.20 | 1 of 18 (1.68) |
| MISQLINMGSFAINSVA | QASIRCN | QQYDRLPLT | n.d. 2.11 n.d. n.d. n.d. 1.36 | 1.73 | 0 of 18 |
| KISQMIRVGSTHGNSIA | EEATRAK | QQYHRLPLF | 1.08 1.71 0.25 1.40 n.d. 1.51 | 1.19 | 0 of 18 |
| MMSQVWGLGQRQRNNVA | QTSTREP | QQYDRLPLI | 0.78 0.50 0.51 0.47 0.37 0.42 | 0.51 | 2 of 18 (2.79) |
| KLVNFMNRGTHHTSNIA | DAQNRND | QQYARLPLA | 1.22 0.60 1.70 0.88 0.82 0.94 | 1.03 | 1 of 18 (2.53) |
| KLSMVTGHLSMAKNNVA | EMVTREN | QQYNRLPLA | -0.43 -0.29 -0.36 -0.54 0.09 -0.24 | -0.30 | 0 of 18 |
| MISQLYNMGSFAINSVA | QASLREE | QQYDRLPLM | 1.53 1.01 2.51 1.44 1.70 1.37 | 1.60 | 2 of 18 (3.11) |
| KVSEFMRGLMGRKDSIA | DNETRNS | QQYDRLPLS | 1.73 1.33 2.47 1.42 1.84 1.37 | 1.69 | 2 of 18 (2.82) |
| KVSGFMRGLMMRKDSIA | DNETRES | QQYDRLPLS | 2.01 1.11 1.49 1.39 1.77 1.55 | 1.55 | 2 of 18 (2.27) |
| MMSQVTGLGMRHQNNVA | QTSTREP | QQYDRLPLI | 0.97 1.03 1.03 0.85 1.03 0.85 | 0.96 | 3 of 18 (3.10) |
| KLSQITGHMSVSKNNVA | EMVTRVN | QQYARLPLS | 1.09 0.96 0.71 0.72 1.26 1.15 | 0.98 | 1 of 18 (3.33) |
| MISQLFNMGQFAINSVA | QASTRCQ | QQYDRLPLM | n.d. n.d. n.d. n.d. n.d. 1.64 | 1.64 | 1 of 18 (1.78) |
| KISQMTRVGSTKGNSIA | EEVTRAK | QQYHRLPLF | 1.08 1.26 1.28 1.86 1.75 1.73 | 1.49 | 1 of 18 (2.13) |
| MISQLMNMGQFAINSVA | QASIRNS | QQYDRLPLT | n.d. n.d. n.d. n.d. n.d. n.d. | n.d. | 0 of 18 |
| MISQVMNTLTRIGNNVA | DLAEREQ | QQYFRLPLS | 1.63 0.78 0.55 1.08 1.78 0.90 | 1.12 | 0 of 18 |
| HLSHMSGVESVKRNSVA | ENSTREQ | QQYDRLPLM | n.d. n.d. n.d. n.d. 1.72 n.d. | 1.72 | 1 of 18 (1.72) |
| SLGLATMLEEYKRNSVA | NNSTRES | QQYDRLPLS | n.d. 3.09 n.d. n.d. n.d. n.d. | 3.09 | 0 of 18 |
| KISMLINMTFEQSNNVA | EMVTRYK | QQYNRLPLS | 2.12 1.94 2.41 2.11 2.03 2.32 | 2.16 | 0 of 18 |
| KVSEFMKGLMMRKDSIA | DNTTRGS | QQYDRLPLS | 1.92 1.62 1.52 1.57 1.80 1.37 | 1.63 | 0 of 18 |
| IVSQLMLWGMHAKNSIA | EAHTRLN | QQYDRLPLI | n.d. n.d. n.d. n.d. 2.18 n.d. | 2.18 | 0 of 18 |
| MISNVMNSLTHTGNNVA | DLQERSD | QQYFRLPLS | 0.74 0.69 0.35 0.36 1.37 0.53 | 0.67 | 0 of 18 |
| KIYGYMGTITRQANSIA | DNTTREN | QQYNRLPLS | n.d. n.d. n.d. n.d. n.d. n.d. | n.d. | 0 of 18 |
| RLSASQGIQSVMRNSVA | QNSTREE | QQYDHLPLS | n.d. n.d. 2.33 2.07 2.35 2.70 | 2.36 | 1 of 18 (2.01) |
| TIQQMMSLFSQTINNVA | EVSLREK | QQYDRLPLS | 1.70 0.95 0.62 0.76 1.13 0.81 | 0.99 | 1 of 18 (2.73) |
| TIGGTLMYGMRNRSNVA | EVSQRLN | QQYDRLPLM | 1.27 1.27 1.01 1.18 1.88 1.32 | 1.32 | 0 of 18 |
| KLSMVTGHLSMAKNNVA | EMVTREK | QQYNRLPLA | -0.13 -0.27 -0.40 -0.24 -0.47 0.00 | -0.25 | 0 of 18 |
| KVSEFMKGLMSRGDSIA | DNVTRSN | QQYDRLPLS | 1.13 1.91 0.60 1.78 1.78 1.29 | 1.42 | 4 of 18 (2.82) |
| MISQLYNMGQFAINSVA | QASERYQ | QQYDRLPLI | n.d. n.d. n.d. n.d. n.d. n.d. | n.d. | 0 of 18 |
| TISMLMNHMTRNTNNVA | NMDMREV | QQYDRLPLS | 0.79 0.43 0.61 0.31 0.30 0.54 | 0.50 | 2 of 18 (2.28) |
| KIGMTLNQMMHKKNNVA | DLVTREQ | QQYHRLPLS | 0.92 0.32 0.63 1.10 0.72 0.94 | 0.77 | 1 of 18 (3.01) |
| MVSQLMVWGMHAKNSIA | EAQTRIN | QQYDRLPLF | 1.94 1.34 2.05 2.37 1.88 1.74 | 1.89 | 0 of 18 |
| MVNQIMDHLSKNTNNVA | ETTTREE | QQYDRLPLS | 0.44 1.12 0.40 0.53 0.90 1.30 | 0.78 | 2 of 18 (3.27) |
| HMSMLTLMGQRHVNSVA | QMTTREN | QQYDRLPLA | 1.55 0.76 1.03 0.89 1.07 1.77 | 1.18 | 0 of 18 |
| IVSQLMLWGMHAKNSIA | EAQTRLN | QQYDRLPLQ | n.d. n.d. n.d. n.d. n.d. n.d. | n.d. | 0 of 18 |

Extract of 4 entries:

| CDR-L1 | CDR-L2 | CDR-L3 | log10 Kd (nM) by replicate | log10 Kd (nM), mean | empty controls |
|---|---|---|---|---|---|
| MVTQLAMTGMMSKRSVA | NAETRES | QQYHRLPLI | 1.01 0.28 0.74 0.67 0.84 1.17 | 0.79 | 0 of 18 |
| HLSHMSGVESVKRNSVA | ENSTREQ | QQYDRLPLM | n.d. n.d. n.d. n.d. 1.72 n.d. | 1.72 | 1 of 18 (1.72) |
| KISQMTRVGSTKGNSIA | EEVTRAK | QQYHRLPLF | 1.08 1.26 1.28 1.86 1.75 1.73 | 1.49 | 1 of 18 (2.13) |
| KIYQAMHTLSQHKDNVA | DVNERGS | QQYYRLPLS | 0.54 0.43 0.38 0.47 0.47 0.63 | 0.49 | 1 of 18 (2.14) |

Reference: Li et al. 2023, doi:10.1038/s41467-023-39022-2. File: FLAb, binding data.